Reference: article PMC9469208 (Journal of Medicinal Chemistry, 2022)
“And” between values parts separate entries of the source, which are not always exact repeats. Identical values can stand only once. Like-named read-outs stand apart in the source and are kept apart here.

The chains behind the UniProt entries cited, without tags or fusion partners. Residues count along the entry.
UniProt P31596, 7-550 limits assumed: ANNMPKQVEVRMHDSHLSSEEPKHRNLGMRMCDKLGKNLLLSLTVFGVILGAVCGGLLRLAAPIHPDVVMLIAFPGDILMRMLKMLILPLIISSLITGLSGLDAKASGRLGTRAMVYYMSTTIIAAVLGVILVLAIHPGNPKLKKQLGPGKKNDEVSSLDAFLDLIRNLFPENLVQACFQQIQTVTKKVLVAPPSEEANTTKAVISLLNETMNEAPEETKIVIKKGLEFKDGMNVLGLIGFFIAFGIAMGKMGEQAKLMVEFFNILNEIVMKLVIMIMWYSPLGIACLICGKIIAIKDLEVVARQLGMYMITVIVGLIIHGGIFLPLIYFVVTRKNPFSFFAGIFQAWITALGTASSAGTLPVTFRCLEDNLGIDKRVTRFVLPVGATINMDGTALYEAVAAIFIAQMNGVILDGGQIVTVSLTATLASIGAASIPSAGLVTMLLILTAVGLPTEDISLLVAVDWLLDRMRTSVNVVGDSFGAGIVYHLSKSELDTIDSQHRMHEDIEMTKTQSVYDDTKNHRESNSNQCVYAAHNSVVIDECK

Tests used:
[1] = tested on: PTZ-induced kindling in mice
[2] = tested on: PTZ-induced seizures in zebrafish larvae; settings: 4 mM, 24 h preincubation, then 20 mM PTZ; vs only PTZ-treated larvae
[3] = target: EAAT2 (primary glia cells) (Rattus norvegicus, UniProt P31596)
[4] = tested on: NMDA receptors (tonic NMDA currents)
GABA transporter GAT-1 = settings: 0.01–100 µM, 4 independent assays, COS-7 cells; listed as (R)-7 [(R)-AS-1]
GABA transporter GAT-3 = settings: 0.01–100 µM, 4 independent assays, COS-7 cells; listed as (R)-7 [(R)-AS-1]
[5] = tested on: spontaneous locomotor activity of mice

| SMILES | effect on kindling progression ([1]; 40 mg/kg i.p.) | effect on mean seizure severity score ([1]; 10 and 20 mg/kg i.p.) | duration of EEG events [2] | number of EEG events [2] | increase in Vmax of glutamate uptake ([3]; 10 nM compound) | increase in Vmax of glutamate uptake ([3]; 100 nM compound) | Vmax of glutamate uptake ([3]; + 10 nM compound) | Vmax of glutamate uptake ([3]; + 100 nM compound) | influence on tonic NMDA currents [4] | tonic NMDA current amplitude after ten minutes application [4] | % Effect, GABA transporter GAT-1 (Substrate radioligand) (GABA transporter GAT-1) | % Effect, GABA transporter GAT-3 (Substrate radioligand) (GABA transporter GAT-3) | spontaneous locomotor activity, [%] inhibition/activation vs vehicle-treated group ([5]; 30 mg/kg i.p.) | spontaneous locomotor activity, [%] inhibition/activation vs vehicle-treated group ([5]; 60 mg/kg i.p.) | spontaneous locomotor activity, [%] inhibition/activation vs vehicle-treated group ([5]; 90 mg/kg i.p.) |
| --- | --- | --- | --- | --- | --- | --- | --- | --- | --- | --- | --- | --- | --- | --- | --- |
| C[C@H](C(=O)NCc1ccccc1)N1C(=O)CCC1=O [(R)-7, (R)-N-Benzyl-2-(2,5-dioxopyrrolidin-1-yl)propanamide] | significantly delayed kindling progression | significantly decreased mean seizure severity score only after 9th and 14th PTZ injection | shorter duration of events | lower number of events | ~147% | ~174% | 28 ± 7 pmol/well/min | 33 ± 3 pmol/well/min | did not influence | 147.3±5.9 pA | 0% and 0 (4 independent assays in 24 well plates) % | 0% and 0 (4 independent assays in 24 well plates) % | – | – | – |
| C[C@H](C(=O)NCc1ccccc1F)N1C(=O)CCC1=O [(R)-8, (R)-2-(2,5-Dioxopyrrolidin-1-yl)-N-(2-fluorobenzyl)propanamide] | – | – | – | – | – | – | – | – | – | – | – | – | 102.3% | 118.6% | 141.6% |
